Test results as given in patent publication US12031977B2, “Ex vivo system for determining multiple drug-drug transporter interactions and methods of use thereof” (Massachusetts Institute of Technology, priority 2019, dated 2024).

Experiments:
P-gp, BCRP, and MRP2 = test: mock screening of model drugs: ex vivo perfusion through porcine small intestine tissue after siRNA knockdown; details: transporter(s) found by siRNA knockdown perfusion screen
Pgp, BCRP, MRP2 = details: transporter(s) reported in previous literature for the drug; cited from earlier work

Platform Target (P-gp, BCRP, and MRP2)	SMILES	Literature Target (Pgp, BCRP, MRP2)
Pgp & BCRP	C=C[C@H]1C[N@@]2CC[C@H]1C[C@H]2[C@H](O)c1ccnc2ccc(OC)cc12 [Quinine]	Pgp & BCRP
Pgp	CC(C)Cc1ccc(C(C)C(=O)O)cc1 (stereo not shown) [Ibuprofen]	Pgp
